## Binding of CDR-mutated scFvs to a peptide of the spike HR2 region

Source: Engelhart et al. 2022 (doi:10.1038/s41597-022-01779-4), MIT Lincoln Laboratory and A-Alpha Bio; data file from the FLAb repository.

All variants were tested on one target, the spike HR2 peptide PDVDLGDISGINAS (SARS-CoV-2).

Parent: Ab-14, a human scFv built as VH, the linker GGGGSGGGGSGGGGS, VL. Only the CDRs of the light chain vary.
VH: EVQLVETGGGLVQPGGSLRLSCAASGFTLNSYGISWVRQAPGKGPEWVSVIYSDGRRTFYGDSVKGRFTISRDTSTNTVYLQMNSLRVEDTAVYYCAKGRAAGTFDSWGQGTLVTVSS
VL: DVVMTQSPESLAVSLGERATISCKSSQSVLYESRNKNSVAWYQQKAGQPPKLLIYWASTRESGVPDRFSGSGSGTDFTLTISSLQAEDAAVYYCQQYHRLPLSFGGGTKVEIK

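The library (AAYL50) carries one to three amino acid substitutions per variant, with no insertions or deletions. The assay is AlphaSeq: two haploid yeast populations carry antibody and antigen on their surface. Pairs that bind mate more often; barcode pairs of the diploids are counted by sequencing. A regression on co-assayed BCL2-family reference pairs converts the normalised counts of each replicate to an apparent Kd. Mating was done three times.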

Each variant is given by its three light chain CDRs, as the data file delimits them; those of the parent are KSSQSVLYESRNKNSVA, WASTRES, QQYHRLPLS. Every variant below is changed at K24 of the VL (sequential numbering). Kd is apparent (estimated from mating counts) and averaged on the log scale over replicates with a signal. Smaller is tighter. A pair that was not seen in any replicate is written "nd"; this usually means weak binding, but a binder can also be missed.

Variant SSSQSVAYESRNKNSVA | WASTRES | EQYHRLPLS showed 110 nM (3 of 3 replicates). For TSSQSVLYESWNKNSVA | WHSTRES | QQYHRLPLS, the assay gave nd (0 of 3 replicates). With LSSGSVLYESRNKNSVA | WASTRES | QQYHRLPTS the result was nd (0 of 3 replicates). With ISSQSVDYEIRNKNSVA | WASTRES | QQYHRLPLS the result was 38 nM (3 of 3 replicates). Variant YSSQSVLYESRNHNSVA | WASTSES | QQYHRLPLS gave nd (0 of 3 replicates). Variant CSSQSVLYESRNKNSVA | WASTREK | QQCHRLPLS showed 160 nM (3 of 3 replicates). Variant GSSQSVLYESRNKNSVA | WASTMES | QQHHRLPLS showed 1.1 µM (3 of 3 replicates).

For MSSQSVLGESRNKNSPA | WASTRES | QQYHRLPLS, the assay gave nd (0 of 3 replicates). Variant DSSQSVLYESRNKNSVA | WASTREV | QQYHRLRLS gave 500 µM (1 of 3 replicates). Variant GSSQSVLYESRNKPIVA | WASTRES | QQYHRLPLS gave nd (0 of 3 replicates). With FSSSSVLYYSRNKNSVA | WASTRES | QQYHRLPLS the result was 12 µM (2 of 3 replicates). Variant QSSQSVLYEHRNKNSVA | WASTRES | QQYHRLPVS showed nd (0 of 3 replicates). With LSSQSVLYESRNANSVA | WAVTRES | QQYHRLPLS the result was 43 nM (3 of 3 replicates). Variant CSSQSVLYESRNKNSVA | WASTRES | QQYHRLSHS showed 140 nM (3 of 3 replicates).

For VSSQSVLYENKNKNSVA | WASTRES | QQYHRLPLS, the assay gave 11 nM (3 of 3 replicates). For DSSQSVLYESRNKNSEA | WASTRES | QQYHRLTLS, the assay gave nd (0 of 3 replicates). Variant GSSQWVSYESRNKNSVA | WASTRES | QQYHRLPLS showed 47 nM (2 of 3 replicates). Variant VSSYSVLYESRWKNSVA | WASTRES | QQYHRLPLS showed nd (0 of 3 replicates). Variant ISSQSVLYESRNKNSAA | WASTRES | QQYHRLPLV showed 69 µM (2 of 3 replicates). Variant TSSCSVLYESRNKNSVA | WASTRES | QQYHRLNLS showed nd (0 of 3 replicates). With HSSQSVLYEKRNYNSVA | WASTRES | QQYHRLPLS the result was 84 nM (3 of 3 replicates).

For ASSQSVLLESRNKNSVA | WASTRES | QQYPRLPLS, the assay gave 190 nM (3 of 3 replicates). Variant QVSQSVLYESRNKNSVA | WASTRES | QQYHGLPLS showed 1.3 nM (3 of 3 replicates). For SSSTSVLYESRNKNSVA | WASTRES | QQYHRLPLP, the assay gave 650 nM (3 of 3 replicates). For RSSQSVLQESRNKNSIA | WASTRES | QQYHRLPLS, the assay gave 6.3 nM (3 of 3 replicates). Variant MSSQSVLYESVNKNSVA | WASTRES | QIYHRLPLS gave 11 µM (3 of 3 replicates). Variant YSSQSVLYESRNKNSVA | WAGDRES | QQYHRLPLS gave 1.4 µM (3 of 3 replicates). Variant DSSQSVLKESRNKNSVA | WASTRES | QQYHRLPKS gave 190 nM (3 of 3 replicates).

Variant ESSQEVLYESRHKNSVA | WASTRES | QQYHRLPLS showed nd (0 of 3 replicates). With WKSQSVLYESRNKNMVA | WASTRES | QQYHRLPLS the result was nd (0 of 3 replicates). For TSSQSVLYESKNKNSVH | WASTRES | QQYHRLPLS, the assay gave 3.9 µM (2 of 3 replicates). With VSSQSVLYESRNKNAVA | WASTRES | QQYHRLPLS the result was 290 nM (3 of 3 replicates). Variant DSSQSVLYECRNKNSVA | WASLRES | QQYHRLPLS showed nd (0 of 3 replicates). Variant WSSQSVLYESRNKNSVA | WALTRES | QAYHRLPLS showed nd (0 of 3 replicates).

In this assay the parent's reference entry averaged 4.4 nM; its copy inside this library read 48 nM. Three control strains display no target. For library AAYL50, 18% of the pairings with them gave a signal, with a median of 15 µM and one signal in twenty below 970 nM, so weak values seen in few replicates may be background.